Earlier results in PMC8967716, “Inhibition of calcium-triggered secretion by hydrocarbon-stapled peptides” (Nature, 2022).

The chains behind the UniProt entries cited, without tags or fusion partners.
UniProt P32851, whole entry, chain 1 of 3: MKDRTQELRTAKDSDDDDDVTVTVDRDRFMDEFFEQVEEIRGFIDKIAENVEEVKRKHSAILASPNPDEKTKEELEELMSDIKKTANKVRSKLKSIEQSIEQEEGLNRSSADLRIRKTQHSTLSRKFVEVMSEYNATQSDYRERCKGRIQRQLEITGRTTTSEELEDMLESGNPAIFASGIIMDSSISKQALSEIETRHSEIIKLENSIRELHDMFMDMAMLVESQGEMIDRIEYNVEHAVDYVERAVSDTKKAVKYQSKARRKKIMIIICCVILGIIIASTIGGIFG
UniProt P21707, whole entry: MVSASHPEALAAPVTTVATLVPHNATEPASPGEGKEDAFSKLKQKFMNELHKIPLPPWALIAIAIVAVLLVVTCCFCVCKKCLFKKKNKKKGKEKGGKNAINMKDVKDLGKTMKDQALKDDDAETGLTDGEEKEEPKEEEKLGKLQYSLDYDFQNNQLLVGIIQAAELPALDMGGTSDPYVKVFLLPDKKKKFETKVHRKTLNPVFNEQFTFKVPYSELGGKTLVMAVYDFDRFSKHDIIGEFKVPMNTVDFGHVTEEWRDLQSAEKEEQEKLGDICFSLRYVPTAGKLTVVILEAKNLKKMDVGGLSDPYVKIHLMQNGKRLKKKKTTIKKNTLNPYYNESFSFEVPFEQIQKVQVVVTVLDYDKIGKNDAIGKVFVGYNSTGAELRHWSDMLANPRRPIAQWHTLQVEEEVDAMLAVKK

Biological target: SNARE complex (Rattus norvegicus) (UniProt P32851)
Conditions: cited from earlier work

Syt1 (from UniProt P21707)
Kd: 20 µM
